Measurements taken from US8338422B2, “Indolin-2-ones and aza-indolin-2-ones” (Janssen Pharmaceutica NV, priority 2007, dated 2012).
Values joined by “and” are separate entries in the source; they are usually repeats but may differ in a detail not shown here. Equal values may be shown once.

Chains of the proteins cited; added tags and fusions are not shown.
UniProt O00444, whole entry: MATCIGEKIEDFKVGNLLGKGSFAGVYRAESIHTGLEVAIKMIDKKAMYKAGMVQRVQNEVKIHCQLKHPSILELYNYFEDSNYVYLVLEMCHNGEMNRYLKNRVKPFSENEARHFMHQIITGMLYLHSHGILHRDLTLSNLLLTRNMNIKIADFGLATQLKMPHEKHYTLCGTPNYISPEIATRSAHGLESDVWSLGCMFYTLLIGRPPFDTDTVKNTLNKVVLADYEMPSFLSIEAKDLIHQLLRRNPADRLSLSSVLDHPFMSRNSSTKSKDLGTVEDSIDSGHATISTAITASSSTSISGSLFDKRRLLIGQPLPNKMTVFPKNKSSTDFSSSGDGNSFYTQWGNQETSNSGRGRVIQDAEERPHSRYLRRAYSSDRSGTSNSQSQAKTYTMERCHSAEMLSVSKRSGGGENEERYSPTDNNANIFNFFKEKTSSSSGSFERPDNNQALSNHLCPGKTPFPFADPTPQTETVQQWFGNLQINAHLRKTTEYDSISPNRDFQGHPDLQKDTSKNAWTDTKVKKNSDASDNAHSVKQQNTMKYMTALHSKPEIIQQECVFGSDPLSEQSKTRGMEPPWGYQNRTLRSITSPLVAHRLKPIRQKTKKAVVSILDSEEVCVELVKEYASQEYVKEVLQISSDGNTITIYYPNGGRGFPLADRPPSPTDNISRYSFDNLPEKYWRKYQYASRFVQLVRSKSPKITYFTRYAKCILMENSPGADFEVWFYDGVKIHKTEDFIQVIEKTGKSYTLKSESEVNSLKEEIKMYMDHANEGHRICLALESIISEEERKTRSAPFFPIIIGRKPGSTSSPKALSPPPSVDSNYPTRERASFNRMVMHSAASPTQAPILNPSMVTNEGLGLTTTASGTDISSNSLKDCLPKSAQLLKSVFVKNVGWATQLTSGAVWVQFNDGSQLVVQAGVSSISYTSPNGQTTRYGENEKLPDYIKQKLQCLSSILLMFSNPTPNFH
UniProt Q96GD4, whole entry: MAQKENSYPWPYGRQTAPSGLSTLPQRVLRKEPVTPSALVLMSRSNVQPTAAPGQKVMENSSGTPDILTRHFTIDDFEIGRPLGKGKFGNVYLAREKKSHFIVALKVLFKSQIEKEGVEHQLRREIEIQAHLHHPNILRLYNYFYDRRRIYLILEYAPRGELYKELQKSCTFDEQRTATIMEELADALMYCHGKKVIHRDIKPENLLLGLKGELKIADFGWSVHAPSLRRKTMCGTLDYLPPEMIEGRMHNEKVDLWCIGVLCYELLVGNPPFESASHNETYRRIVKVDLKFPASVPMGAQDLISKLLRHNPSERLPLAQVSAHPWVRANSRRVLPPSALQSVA
UniProt P06493, whole entry: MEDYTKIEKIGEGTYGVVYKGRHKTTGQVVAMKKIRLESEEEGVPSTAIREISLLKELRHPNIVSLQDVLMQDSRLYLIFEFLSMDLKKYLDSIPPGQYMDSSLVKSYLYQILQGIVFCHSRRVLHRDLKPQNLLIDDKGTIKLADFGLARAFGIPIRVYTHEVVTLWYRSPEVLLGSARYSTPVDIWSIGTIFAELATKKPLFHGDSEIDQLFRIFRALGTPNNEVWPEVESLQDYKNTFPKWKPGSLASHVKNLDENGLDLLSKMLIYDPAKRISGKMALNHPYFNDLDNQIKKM
UniProt P49841, whole entry: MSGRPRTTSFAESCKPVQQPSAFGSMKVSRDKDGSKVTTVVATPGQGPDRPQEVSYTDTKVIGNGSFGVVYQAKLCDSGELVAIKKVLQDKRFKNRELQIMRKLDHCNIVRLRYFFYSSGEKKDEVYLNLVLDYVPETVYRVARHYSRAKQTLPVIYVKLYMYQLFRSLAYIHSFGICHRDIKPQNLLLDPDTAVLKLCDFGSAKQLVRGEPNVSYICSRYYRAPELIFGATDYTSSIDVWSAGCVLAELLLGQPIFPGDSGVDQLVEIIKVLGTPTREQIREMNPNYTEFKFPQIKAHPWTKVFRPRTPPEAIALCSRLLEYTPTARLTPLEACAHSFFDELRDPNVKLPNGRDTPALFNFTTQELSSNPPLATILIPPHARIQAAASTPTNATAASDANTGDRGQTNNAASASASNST
UniProt P14635, whole entry partner: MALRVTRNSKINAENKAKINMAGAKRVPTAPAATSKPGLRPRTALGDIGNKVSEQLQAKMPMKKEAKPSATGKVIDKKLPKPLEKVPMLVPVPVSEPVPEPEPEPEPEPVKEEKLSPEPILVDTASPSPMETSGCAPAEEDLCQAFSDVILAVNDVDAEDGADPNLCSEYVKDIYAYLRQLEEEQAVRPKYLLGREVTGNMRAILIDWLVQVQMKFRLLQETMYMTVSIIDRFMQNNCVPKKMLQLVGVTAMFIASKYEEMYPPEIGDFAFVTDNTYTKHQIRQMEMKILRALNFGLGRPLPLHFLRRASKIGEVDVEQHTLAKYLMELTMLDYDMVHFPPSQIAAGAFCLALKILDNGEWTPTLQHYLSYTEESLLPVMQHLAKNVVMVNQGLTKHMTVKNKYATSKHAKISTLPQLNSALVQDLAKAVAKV

Columns and labels:
[1] = tested on: HCT-116; test: Cellular proliferation assay (Alamar blue), HCT-116; conditions: HCT-116 cells, 72 hours with compound, 10% FCS
Method: (§1) […] functional properties of these compounds was tested in cellular proliferation assays on a panel of different cell lines in the presence of 10% FCS serum (37° C. and 5% (v/v) CO2). In a first step these cells were seeded and incubated for 24 hours in the absence of compound. In the second step the cells were incubated for 72 hours with the compounds to be tested for 72 hours. The viable cell number was finally assessed in a standard Alamar blue cell viability assay.
(§2) The viable cell number was assessed by incubation for either 4 h (HCT-116, H1299, H460) 6 h (SKOV3, HT29, U87-MG, Colo205) or 24 h (A2780, PC3, MDA-MB-231, A549, MCF-7) with Alamar blue (Resazurin 9 μg/ml, K-Ferrocyanide 90 μM K-Ferricyanide 90 μM) and the converted fluorescent product was quantified on a fluorescent plate readed (544 nm/590 nm). Effect of the compounds is calculated as of on control cells.

[2] = molecular target: PLK4 (h) (Homo sapiens, UniProt O00444); test: PLK-4 human kinase assay (SPA)
Method: (§3) The in vitro inhibition of a panel of kinases was assessed using either the scintillation proximity assay (SPA) as described by Cook, N. D. et al., Advances in Experimental Medicine and Biology (1991), 36; p. 525-528; or the Fluorescence Resonance Energy Transfer (FRET) technology as described by Rodems, S. M. et al., Assay Drug Develop. Technol. (2002), 1; p. 9-19.
(§4) In the SPA technology the activity of the kinase of interest is measured using an appropriate biotinylated substrate that is incubated with the aforementioned kinase protein in the presence of (^33P) radiolabeled ATP. (^33P) Phosporylation of the substrate is subsequently measured through binding of the phosphorylated substrate to streptavidine coated beads that are based on the scintillant poly(vinyl toluene) (PVT-Beads). The scintillation intensity is detected by imaging on Leadseeker.
(§5) All kinases are pre-diluted to a 10× working concentration prior to addition into the assay. The composition of the dilution buffer for each kinase is detailed below.
In a final reaction volume of 30 μl PLK4 (h) (19 μg/ml) is incubated with 50 mM Hepes pH 8.0, 10 mM MgCl2, 50 mM NaCl, 1 mM NaF, 1 mM DTT, 10 μM of peptide Biotin-RPRGQRDSSYYWE-OH, 1 μM ATP and 2 nM [γ-^33P-ATP] (6.0 μCi/ml). After incubation of 60 minutes at room temperature, the reaction is stopped by addition of 40 μl, of stop solution containing 8.7 mM EDTA, BSA 0.17%, 0.17% Triton X-100, 1.7 mg/ml SPA beads (GE-healthcare). The plate is centriguged and read for Scintillation imaging on Leadseeker.

[3] = tested on: A2780; test: Cellular proliferation assay (Alamar blue), A2780; conditions: A2780 cells, 72 hours with compound, 10% FCS
Method: as §1, §2

[4] = tested on: MDA/MB231; test: Cellular proliferation assay (Alamar blue), MDA/MB231; conditions: MDA/MB231 cells, 72 hours with compound, 10% FCS
Method: as §1, §2

[5] = molecular target: AuroraB (h) (Homo sapiens, UniProt Q96GD4); test: Aurora-B human kinase assay (SPA)
Method: as §3, §4, §5
In a final reaction volume of 30 μl, AuroraB (h) (0.5 μg/ml) is incubated with 60 mM Hepes pH 7.5, 3 mM MgCl2, 3 mM MnCl2, 3 μM Na3VO4, 0.05 mg/ml PEG, 2 mM DTT, 3 μM Biotin-[…]-OH, 0.5 μM ATP and 2.2 nM [γ-^33P-ATP] (6.8 μCi/ml). After incubation of 60 minutes at room temperature, the reaction is stopped by addition of 40 μL of stop solution containing 8.7 mM EDTA, BSA 0.17%, 0.17% Triton X-100, 5 mg/ml SPA beads (GE-healthcare). The plate is centriguged and read for Scintillation imaging on Leadseeker.

[6] = tested on: U87MG; test: Cellular proliferation assay (Alamar blue), U87MG; conditions: U87MG cells, 72 hours with compound, 10% FCS
Method: as §1, §2

[7] = tested on: H1299; test: Cellular proliferation assay (Alamar blue), H1299; conditions: H1299 cells, 72 hours with compound, 10% FCS
Method: as §1, §2

[8] = molecular target: CDK1/CyclinB (h) (Homo sapiens, UniProt P06493); test: CDK1/CyclinB human kinase assay (FRET)
Method: as §3
In the FRET technology the activity of the kinase of interest is measured using an appropriate substrate that is labeled with two fluorophores (coumarin and fluorescein). Phosphorylation is determined using a developing reagent comprising a protease that recognizes and cleaves nonphosphorylated peptides. Cleavage will disturb the FRET between the fluorescein and coumarin on the peptide. Uncleaved, phosphorylated peptides maintain the FRET signal. A ratiometric readout of the donor emission over the acceptor emission quantitates the reaction process.
as §5
In a final reaction volume of 10 μl, CDK1/CyclinB (h) (0.2 μg/ml) is incubated with 50 mM Hepes pH 7.5, 10 mM MgCl2, 1 mM EGTA, 0.01% Brij-35, 2 μM Z'lyte Ser/Thr peptide 12 and 10 μM ATP (Invitrogen's FRET assay). After incubation of 60 minutes at room temperature, the reaction is stopped by addition of 5 μL development reagent containing protease mix. After 60 minutes room temperature the development reaction is stopped by adding 5 μl stop solution. The plate is then read in fluorescence plate reader with excitation: 390 nm and dual emission: 460 and 538 nm. Emission ratio is determined to the formula=Emission signal intensity at 460 nm/Emission signal intensity at 538 nm.

[9] = molecular target: GSK3β (h) (Homo sapiens, UniProt P49841); test: GSK-3β human kinase assay (SPA)
Method: as §3, §4, §5
In a final reaction volume of 30 μl, GSK3β (h) (1 μg/ml) is incubated with 25 mM Tris pH 7.4, 10 mM MgCl2, 1 mM DTT, 1 μM peptide Biotin-KRREILSRRPSYR-OH, 1 μM ATP and 2 nM [γ-^33P-ATP] (6.0 μCi/ml). After incubation of 60 minutes at room temperature, the reaction is stopped by addition of […] of stop solution containing 8.7 mM EDTA, BSA 0.17%, 0.17% Triton X-100, 6.25 mg/ml SPA beads (GE-healthcare). The plate is centriguged and read for Scintillation imaging on Leadseeker.

[10] = tested on: PC-3; test: Cellular proliferation assay (Alamar blue), PC-3; conditions: PC-3 cells, 72 hours with compound, 10% FCS
Method: as §1, §2

[11] = tested on: SKOV3; test: Cellular proliferation assay (Alamar blue), SKOV3; conditions: SKOV3 cells, 72 hours with compound, 10% FCS
Method: as §1, §2

| Compound | pIC50 HCT-116 [1] | PLK4 pIC50 [2] | pIC50 A2780 [3] | pIC50 MDA/MB231 [4] | AuroraB pIC50 [5] | pIC50 U87MG [6] | pIC50 H1299 [7] | CDK1 pIC50 [8] | GSK3B pIC50 [9] | pIC50 PC-3 [10] | pIC50 SKOV3 [11] |
| --- | --- | --- | --- | --- | --- | --- | --- | --- | --- | --- | --- |
| COc1ccc2cc1CN(C)CC(=O)N(C)CCN(C)CCNc1ncnc3c1/C(=C/N2)C(=O)N3 | <5 | 5.2 | <5 | <5 | <5 | <5 | 5.03 | <5 | 6.24 | <5 | – |
| COCCN1CCOc2cc(ccc2Cl)N/C=C2\C(=O)Nc3ncnc(c32)NCCN(C)C(=O)C1 | – | – | – | – | – | – | – | – | 6.02 | – | – |
| CN1CCNc2ncnc3c2/C(=C/Nc2ccc(N4CCOCC4)c(c2)OCCCCCC1=O)C(=O)N3 | <5 | 6.26 | <5 | <5 | 5.61 | <5 | 5.51 | 5.23 | 6.15 | <5 | <5 |
| COCCN1CCCOc2cc(ccc2Cl)N/C=C2\C(=O)Nc3ncnc(c32)NCCNC(=O)C1 | – | – | – | – | 4.99 | – | – | – | 5.77 | – | – |
| COCCN1CCCOc2cccc(c2)N/C=C2\C(=O)Nc3ncnc(c32)N2CCN(CC2)C(=O)C1 | – | 5.24 and 5.13 | – | – | <5 | – | – | – | 5.63 and 5.47 | – | – |
| CN1CCNc2ncnc3c2/C(=C/Nc2ccc(N4CCOCC4)c(c2)OCCCCC1=O)C(=O)N3 | <5 | 6.585 | <5 | <5 | <5 | <5 | <5 | <5 | 6.275 | <5 | 5.18 |
| CN1CCCNc2ncnc3c2/C(=C/Nc2ccc(Cl)c(c2)OCCN2C[C@H](O)C[C@@H]2C1=O)C(=O)N3 | – | – | – | – | <5 | – | – | – | – | – | – |
| COc1ccc2cc1OCC(=O)N(C)CCN(C)CCNc1ncnc3c1/C(=C/N2)C(=O)N3 | <5 | 6.1 | <5 | <5 | 5.94 | <5 | <5 | <5 | 6.24 | <5 | – |
| CN1CCNc2ncnc3c2/C(=C/Nc2ccc(Cl)c(c2)OCCCN2C[C@H](O)C[C@@H]2C1=O)C(=O)N3 | – | – | – | – | <5 | – | – | – | 5.45 | – | – |
| CN1CCNc2ncnc3c2/C(=C/Nc2cccc(c2)OCCCN2C[C@H](O)C[C@@H]2C1=O)C(=O)N3 | – | – | – | – | <5 | – | – | – | – | – | – |
| COCCN1CCOc2cc(ccc2OC)N/C=C2\C(=O)Nc3ncnc(c32)NCCN(C)C(=O)C1 | – | – | – | – | 5.61 | – | – | – | 5.91 | – | – |
| CN1CCCNc2ncnc3c2/C(=C/Nc2cccc(c2)OCCN2C[C@H](O)C[C@@H]2C1=O)C(=O)N3 | – | <5 | – | – | <5 | – | – | – | 5.18 | – | – |
| COCCN1CCCOc2cccc(c2)N/C=C2\C(=O)Nc3ncnc(c32)NCCNC(=O)C1 | – | 6.27 and 6.12 | – | – | 5.59 and 5.37 | – | – | – | 5.55 and 5.73 | – | – |
| COc1cc2cc(c1OC)OCC(=O)N(C)CCN(C)CCNc1ncnc3c1/C(=C/N2)C(=O)N3 | <5 | 5.35 | <5 | <5 | 5.28 | <5 | <5 | <5 | <5 | <5 | – |
| COCCN1CCOc2cccc(c2)N/C=C2\C(=O)Nc3ncnc(c32)NCCNC(=O)C1 | – | – | – | – | 5.25 | – | – | – | 6.08 | – | – |
| COc1ccc2cc1OCCCN(C)[C@H](CO)C(=O)NCCNc1ncnc3c1/C(=C/N2)C(=O)N3 | – | – | – | – | 6.03 | – | – | – | 5.76 | – | – |
| CN1CCOc2cccc(c2)N/C=C2\C(=O)Nc3ncnc(c32)N2CCN(CC2)C(=O)[C@H]1CO | – | <5 | – | – | <5 | – | – | – | 6.4 | – | – |
| CN1CCCNc2ncnc3c2/C(=C/Nc2cccc(c2)OCC(=O)N[C@H](Cc2ccccc2)C1)C(=O)N3 [Compound 176] | <5 | 5.93 | <5 | <5 | <5 | <5 | <5 | – | 5.31 | <5 | – |
| CN1CCCOc2cccc(c2)N/C=C2\C(=O)Nc3ncnc(c32)N2CCN(CC2)C(=O)[C@H]1CO | – | <5 | – | – | <5 | – | – | – | 6.37 | – | – |
